Results reported in patent US20260232826A1, “ANTIBODY-DRUG CONJUGATES AND THEIR USES” (Mablink Bioscience, priority 2022, published 2026).

Sequences of proteins named here, by UniProt entry; tags and fusion partners are left off. Residues count along the entry.
UniProt P35846, 25-232: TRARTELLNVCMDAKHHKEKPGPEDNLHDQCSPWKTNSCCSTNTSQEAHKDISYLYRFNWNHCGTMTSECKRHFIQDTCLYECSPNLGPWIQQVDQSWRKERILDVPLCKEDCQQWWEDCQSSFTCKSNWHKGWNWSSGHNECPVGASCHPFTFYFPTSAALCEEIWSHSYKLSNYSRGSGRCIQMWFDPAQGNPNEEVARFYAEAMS

B1: F-LALA-VA-EXA (conjugate)
heavy: EVQLVESGGGVVQPGRSLRLSCSASGFTFSGYGLSWVRQAPGKGLEWVAMISSGGSYTYYADSVKGRFAISRDNAKNTLFLQMDSLRPEDTGVYFCARHGDDPAWFAYWGQGTPVTVSSASTKGPSVFPLAPSSKSTSGGTAALGCLVKDYFPEPVTVSWNSGALTSGVHTFPAVLQSSGLYSLSSVVTVPSSSLGTQTYICNVNHKPSNTKVDKKV[gap - human IgG1 Fc with changes]
light: DIQLTQSPSSLSASVGDRVTITCSVSSSISSNNLHWYQQKPGKAPKPWIYGTSNLASGVPSRFSGSGSGTDYTFTISSLQPEDIATYYCQQWSSYPYMYTFGQGTKVEIKRTVAAPSVFIFPPSDEQLKSGTASVVCLLNNFYPREAKVQWKVDNALQSGNSQESVTEQDSKDSTYSLSSTLTLSKADYEKHKVYACEVTHQGLSSPVTKSFNRGEC
modifications: N-methyl
B2: M-SORAV (conjugate)
heavy: QVQLVQSGAEVVKPGASVKISCKASGYTFTGYFMNWVKQSPGQSLEWIGRIHPYDGDTFYNQKFQGKATLTVDKSSNTAHMELLSLTSEDFAVYYCTRYDGSRAMDYWGQGTTVTVSSASTKGPSVFPLAPSSKSTSGGTAALGCLVKDYFPEPVTVSWNSGALTSGVHTFPAVLQSSGLYSLSSVVTVPSSSLGTQTYICNVNHKPSNTKVDKKV[gap - human IgG1 Fc]
light: DIVLTQSPLSLAVSLGQPAIISCKASQSVSFAGTSLMHWYHQKPGQQPRLLIYRASNLEAGVPDRFSGSGSKTDFTLTISPVEAEDAATYYCQQSREYPYTFGGGTKLEIKRTVAAPSVFIFPPSDEQLKSGTASVVCLLNNFYPREAKVQWKVDNALQSGNSQESVTEQDSKDSTYSLSSTLTLSKADYEKHKVYACEVTHQGLSSPVTKSFNRGEC

How the values were obtained:
[1] = test system: IGROV-1 cancer model; assay: In vivo efficacy and tumor re-implantation challenge, IGROV-1 xenograft; design: species or system SCID mice; settings: group treated at 12 mg/kg IV once, re-implanted at day 94
Text: (§1) Four to five-week-old female CB-17 severe combined immunodeficient (SCID) mice are obtained and quarantined for 7 days prior to study initiation. Mice are inoculated subcutaneously with cells (5-10×10^6 cells per mouse) resuspended in PBS (OV-90, SW-620, KB, BT-474 cell lines) or 50% BD Matrigel (Corning®) in PBS (PA-1, IGROV-1, OVCAR-3, NCI-H2110 cell lines). When average tumor volume reached about 120-150 mm^3 mice are randomized (typically 7 mice per group) and treated by a single (unless stated otherwise) intravenous injection of PBS (negative control) or investigated antibody-drug conjugate. Tumor volumes are measured every 3-5 days using a caliper device (length×width) and calculated using the following formula V=4/3×π×R3, where R represents the radius. Mice are sacrificed when the tumor volume exceeded 1500 mm^3 or in case of ulceration of the tumor.
Four to five-week-old female CB-17 severe combined immunodeficient (SCID) mice were obtained from Janvier labs (Le Genest-Saint-Isle, France) and quarantined for 7 days prior to study initiation. […] Tumor volumes were measured every 3-5 days using a caliper device (length×width) and calculated using the following formula V=4/3×π×R^3, where R represents the radius. […]

[2] = Dose-range-finding toxicology study in cynomolgus monkeys; type: in vivo, cynomolgus monkeys (Macaca fascicularis)
Method: A nonhuman primate dose-range-finding toxicology study was conducted using purpose-bred native female cynomolgus monkeys (Macaca fascicularis) of Vietnam origin. The study was performed at Cynbiose SAS (Marcy-I'Étoile, France). The study protocol was approved by the testing facility Institutional Animal Care and Use Committee. […] Two female monkeys/group were used in the study (total of 8 animals). Following terminal sacrifice 5 days after the last administration, gross necropsy, measurement of organ weights and histopathologic examinations were conducted. Parameters evaluated during the study included mortality, clinical signs (including estimation of food consumption), body weights, ophthalmology examinations, body temperature, hematology, coagulation, clinical chemistry, urinalysis, organ weights, and macroscopic and microscopic examinations of an extensive list of tissues. ADC formulation buffer was 20 mM histidine pH 6.0, 4% (w/v) sucrose and 75 mM NaCl. Vehicle was saline 0.9%.

[3] = biological target: T1, recombinant mouse FRα protein (Mus musculus, UniProt P35846); assay: Recombinant FRα-binding by ELISA (mouse); settings: FIG. 4B
T1 construct: purchased Sino Biological 50573-M08H
Method: (§2) Sandwich ELISA assays were performed using 96-well high-binding ELISA plates (Corning Inc., New York, NY, USA, Cat #3590). Plates were coated using 100 μL/well of recombinant human FRα protein (Sino Biological cat #11241-H08H); recombinant cynomolgus FRα protein (Sino Biological cat #90950-C08H); recombinant rat FRα protein (Sino Biological cat #81073-R08H) or recombinant mouse FRα protein (Sino Biological cat #50573-M08H) in PBS (pH 7.4) at 2 μg/mL and incubated overnight at 4° C. After 2 washes with PBS-T (PBS+0.05% Tween-20), the plates were blocked with 200 μL/well of incubation buffer (PBS-T+0.1% BSA) for 1 h at room temperature. The plates were washed 4 times with PBS-T, and 100 μL of a threefold dilution series of tested compound (antibody or antibody-drug conjugate) was added. Then, the plates were incubated for 2 h at room temperature in the dark. After 5 washes with PBS-T, plates were incubated 1 h at room temperature with 100 μL/well of a goat anti-human IgG (H+L) HRP conjugated antibody (Jackson Immunoresearch cat #109-035-088), previously diluted 1:250000 in incubation buffer. After 5 washes with PBS-T, TMB substrate solution (Thermo-Fisher cat #N301) was added. Peroxidase activity was stopped with 0.18M H2SO4 and absorbance was read at 450 nm (reference wavelength 650 nm) using a Thermo Scientific MultiSkan EX microplate reader. […]

[4] = test system: recombinant rat FRα protein; assay: Recombinant FRα-binding by ELISA (rat); settings: FIG. 4B
Method: as §2

[5] = test system: OV-90 cancer model; assay: In vivo efficacy, OV-90 xenograft; settings: for toxicities observed in OV-90 xenograft study: IV once at 30 mg/kg (FIG. 11)
Text: as §1
as §1, with “were” for “are”, “obtained from Janvier labs (Le Genest-Saint-Isle, France)” for “obtained”, “V=4/3×π×R^3,” for “V=4/3×π×R3,”

[6] = rat, in vivo, iv, 5 mg/kg

| Molecule | tumor regrowth rechallenge (re-implantation of IGROV-1 cells) [1] | tolerability in cynomolgus monkeys at 60 mg/kg ([2]; IV 60 mg/kg) | tolerability in cynomolgus monkeys ([2]; IV 30, 40, 50 or 60 mg/kg, 3 doses at three-week interval) | estimated highest non-severely toxic dose (HNSTD) ([2]; IV, three-week interval, thrice (FIG. 22)) [mg/kg] | mouse recombinant FRα binding (ELISA) [3] | rat recombinant FRα binding (ELISA) [4] | efficacy, OV-90 xenograft ([5]; IV once at 10 mg/kg (FIG. 12)) | toxicities observed in OV-90 xenograft study [5] | efficacy, OV-90 xenograft ([5]; IV once at 3, 6 and 12 mg/kg (FIG. 15)) | clearance rates [6] | half-life [6] [days] | mice with diarrhea ([5]; IV once at 30 mg/kg) | mice presenting signs of prostration ([5]; mouse, in vivo, iv, 30 mg/kg) | mice showing unkempt appearances (dull and matted haircoat) ([5]; mouse, in vivo, iv, 30 mg/kg) |
| --- | --- | --- | --- | --- | --- | --- | --- | --- | --- | --- | --- | --- | --- | --- |
| B1 | no tumor growth was observed after re-implantation | not tolerated because of acute kidney failure in one of the two animals | well tolerated | 50 | does not bind | does not bind | outperformed both F-VA-EXA and M-SORAV | No toxicities were observed | outperformed M-SORAV | slow clearance rates | 13 to 15 | – | – | – |
| B2 | – | – | – | – | – | – | – | significant toxicities were observed | – | – | – | 2 out of 6 | 3 out of 6 | 6 out of 6 |
